Values quoted from earlier work in patent US20130273207A1, “Calcium Fortifying Composition for Strength, a Hydration Supplement, and Process for Preparing the Same” (priority 2010, published 2013).

Conditions: single components; cited from earlier work

In the case of calcium gluconate [reference compound], the solubility is listed as 35 mg/mL.
